Data from paper PMC10573712, “Phosphorylation-Assisted Luciferase Complementation Assay Designed to Monitor Kinase Activity and Kinase-Domain-Mediated Protein–Protein Binding” (International Journal of Molecular Sciences, 2023).
Where “and” joins values, the source holds several entries; their conditions need not be identical. Equal values may be shown once.

By UniProt entry, the sequences of proteins in these tests, tags left out. Where a name states a change or a piece, a line headed by the entry shows the natural chain unless it says otherwise.
UniProt P45983: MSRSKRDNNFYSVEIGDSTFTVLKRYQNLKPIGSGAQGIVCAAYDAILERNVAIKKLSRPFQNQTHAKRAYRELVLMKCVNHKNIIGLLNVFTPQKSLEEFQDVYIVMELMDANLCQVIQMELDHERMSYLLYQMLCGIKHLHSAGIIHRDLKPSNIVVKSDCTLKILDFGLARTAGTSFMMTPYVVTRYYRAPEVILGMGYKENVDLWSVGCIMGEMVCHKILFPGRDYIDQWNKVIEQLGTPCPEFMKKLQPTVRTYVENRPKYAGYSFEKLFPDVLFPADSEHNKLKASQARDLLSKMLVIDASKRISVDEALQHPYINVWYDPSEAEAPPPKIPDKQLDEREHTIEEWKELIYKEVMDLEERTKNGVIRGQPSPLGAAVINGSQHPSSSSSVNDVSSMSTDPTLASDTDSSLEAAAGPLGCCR
UniProt Q16539, whole entry: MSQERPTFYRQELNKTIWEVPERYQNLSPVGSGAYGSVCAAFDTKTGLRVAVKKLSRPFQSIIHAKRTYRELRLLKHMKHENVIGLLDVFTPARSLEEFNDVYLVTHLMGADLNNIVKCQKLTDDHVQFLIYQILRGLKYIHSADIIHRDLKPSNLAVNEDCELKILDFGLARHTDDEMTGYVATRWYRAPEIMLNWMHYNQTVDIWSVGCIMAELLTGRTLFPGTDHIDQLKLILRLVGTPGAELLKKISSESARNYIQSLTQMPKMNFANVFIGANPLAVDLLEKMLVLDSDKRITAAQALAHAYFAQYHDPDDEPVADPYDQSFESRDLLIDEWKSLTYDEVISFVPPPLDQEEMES

Key:
Assay type in all cases: biochemical
JNK1 = target: T1, JNK1 (Homo sapiens, UniProt P45983); assay: JNK1–PDE4B-Sensor PhALC assay
T1 construct: made in house; host or cells: Rosetta2 (DE3) E. coli
Excerpt: Similar to what was described earlier with the RSK Sensor, to be able to monitor kinase docking for MAPKs, the NanoBit luciferase fragment complementation-based PPI assay concept was modified so that MAPK-docking-mediated phosphorylation of an artificial substrate sensor could also be monitored in a microplate reader. Briefly, a general MAPK phosphorylation target motif (S/TP) was positioned C-terminal from an MAPK-binding D-motif, or N-terminal from an F-motif, and this SENSOR construct was fused with the small fragment of the luciferase enzyme. […]
In the case of the RSK-PhALC assay the reaction mixture contained 0.5 µM 14-3-3-LgBiT RC, 1 µM VF-Sensor, 50 nM RSK2, 40 µM coelenterazine (#301-10 hCTZ, Prolume Ltd., Pinetop, AZ, USA), 1 mM DTT, 6 mg/mL BSA in 1X kinase buffer (50 mM HEPES, pH = 7.4; 100 mM NaCl; 5 mM MgCl2; 5% glycerol; and 0.05% Igepal). […] Measurements were performed using a BioTek Synergy 2 or Cytation 3-plate reader at 25 °C in white 96- or 384-well plates (SPL Life Sciences, Gyeonggi-do, Korea, #30196 or Greiner Microplate, Greiner Bio-One AG, Kremsmünster, Austria, #781904). […] The luminescence signal was monitored for 30–60 min and the slope from the initial linear region was calculated by linear regression. […] To quantify the rate of change in the signal during this early period, we used linear regression analysis to calculate the slope. […]

p38α [1] = target: T2, p38α (Homo sapiens, UniProt Q16539); assay: p38α–FENEF-Sensor PhALC assay (F-groove); conditions: 10 μM inhibitor
T2 construct: made in house; host or cells: Rosetta2 (DE3) E. coli
Excerpt: (§1) Similar to what was described earlier with the RSK Sensor, to be able to monitor kinase docking for MAPKs, the NanoBit luciferase fragment complementation-based PPI assay concept was modified so that MAPK-docking-mediated phosphorylation of an artificial substrate sensor could also be monitored in a microplate reader. Briefly, a general MAPK phosphorylation target motif (S/TP) was positioned C-terminal from an MAPK-binding D-motif, or N-terminal from an F-motif, and this SENSOR construct was fused with the small fragment of the luciferase enzyme. In the recognition construct (RC), a WW domain binding specifically to the phosphorylated MAPK target motif was fused with the large fragment of the luciferase. […] (Figure 3A).
(§2) In the case of the MAPK-PhALC assays the reaction mixture contained 1 µM RC (WW-LgBiT RC), 1 µM MAPK-Sensor (SmBiT-constructs), 0.3–2 nM double-phosphorylated MAPKs, and 60 µM coelenterazine in 1X kinase buffer. […] The reaction was induced by the addition of ATP (at 0.1 or 1 mM final concentration) dissolved in 1X kinase buffer. […] The luminescence signal was monitored for 30–60 min and the slope from the initial linear region was calculated by linear regression. […] To quantify the rate of change in the signal during this early period, we used linear regression analysis to calculate the slope.

p38α [2] = target: T2, p38α; assay: p38α–MEF2A-Sensor PhALC assay (D-groove); conditions: 10 μM inhibitor
Excerpt: as §1, §2

`Cc1cc(NC(=O)c2cccc(NC(=O)/C=C/CN(C)C)c2)ccc1Nc1nccc(-c2cccnc2)n1` [JNK-IN-8] was tested. Which IC50 (JNK1) did it give?
The IC50 was 17 nM and 17.3 nM.

Which results are given for `CN[C@@H]1C[C@H]2O[C@@](C)([C@@H]1OC)n1c3ccccc3c3c4c(c5c6ccccc6n2c5c31)C(=O)NC4` [staurosporin]?
Effect of inhibitor on kinase activity (JNK1; 10 μM inhibitor): unaffected; Effect of inhibitor on kinase activity (p38α [1]): unaffected; Effect of inhibitor on kinase activity (p38α [2]): unaffected
